Assay results: patent US20070190523A1 (priority 2002, published 2007)

Assays:
[1] = molecular target: recombinant HIV-1 protease (Human immunodeficiency virus type 1 group M subtype B, UniProt P04585); assay: biochemical
WT = WT (Human immunodeficiency virus type 1 group M subtype B, UniProt P04585); assay: cell-based; parameters: species or system HIV

| SMILES | Ki [1] [nM] | other results |
| --- | --- | --- |
| COc1ccc(S(=O)(=O)N(CC(C)C)CC(O)C(CNc2ccc(CP(=O)(O)O)cc2)NC(=O)OC2COC3OCCC23)cc1 (centres unmarked) | 0.01 to 0.1 | – |
| CCOP(=O)(COc1ccc2c(c1)CCN(CC(NC(=O)OC1COC3OCCC13)C(O)CN(CC(C)C)S(=O)(=O)c1ccc(OC)cc1)C2)OCC (centres unmarked) | 0.1 to 1 | – |
| CCOP(=O)(CCNC(=O)Oc1ccc(CC2C(O)C(O)C(Cc3ccc(OC)cc3)N(Cc3cccc(N)c3)C(=O)N2Cc2cccc(N)c2)cc1)OCC (centres unmarked) [OCH3 / Ph-mNH2 / OCONH(CH2)2PO3Et2] | – | IC50 [1]: 1.3 nM |
| CCOP(=O)(COc1ccc(CC2C(O)C(O)C(Cc3ccc(OC)cc3)N(Cc3cccnc3)C(=O)N2Cc2cccnc2)cc1)OCC (centres unmarked) [OCH3, m-pyridine, OCH2PO3Et2] | – | EC50 (WT): 115 nM |
| COc1ccc(S(=O)(=O)N(CC(C)C)CC(O)C(Cc2ccc(OCCOCP(=O)(O)O)cc2)NC(=O)OC2COC3OCCC23)cc1 (centres unmarked) [drawing 612 R1=OH R2=OH] | 0.01 to 0.1 | – |
